pIC50: −log10 of the molar value. Like-named read-outs stand apart in the source and are kept apart here.
Assays:
[1] = target: T1, VEGFR2 (Homo sapiens, UniProt P35968); details: reported IC50 to VEGFR2, read-out: VEGFR2 IC50_μM, cited from earlier work
[2] = target: T1, VEGFR2; details: relative IC50: reported IC50 toward VEGFR2 divided by next lowest reported IC50 to any gene target
[3] = Table 3, selective inhibitors of VEGFR2

Sequences of proteins named here, by UniProt entry; tags and fusion partners are left off. Residues count along the entry.
UniProt P35968, 20-1356, species assumed: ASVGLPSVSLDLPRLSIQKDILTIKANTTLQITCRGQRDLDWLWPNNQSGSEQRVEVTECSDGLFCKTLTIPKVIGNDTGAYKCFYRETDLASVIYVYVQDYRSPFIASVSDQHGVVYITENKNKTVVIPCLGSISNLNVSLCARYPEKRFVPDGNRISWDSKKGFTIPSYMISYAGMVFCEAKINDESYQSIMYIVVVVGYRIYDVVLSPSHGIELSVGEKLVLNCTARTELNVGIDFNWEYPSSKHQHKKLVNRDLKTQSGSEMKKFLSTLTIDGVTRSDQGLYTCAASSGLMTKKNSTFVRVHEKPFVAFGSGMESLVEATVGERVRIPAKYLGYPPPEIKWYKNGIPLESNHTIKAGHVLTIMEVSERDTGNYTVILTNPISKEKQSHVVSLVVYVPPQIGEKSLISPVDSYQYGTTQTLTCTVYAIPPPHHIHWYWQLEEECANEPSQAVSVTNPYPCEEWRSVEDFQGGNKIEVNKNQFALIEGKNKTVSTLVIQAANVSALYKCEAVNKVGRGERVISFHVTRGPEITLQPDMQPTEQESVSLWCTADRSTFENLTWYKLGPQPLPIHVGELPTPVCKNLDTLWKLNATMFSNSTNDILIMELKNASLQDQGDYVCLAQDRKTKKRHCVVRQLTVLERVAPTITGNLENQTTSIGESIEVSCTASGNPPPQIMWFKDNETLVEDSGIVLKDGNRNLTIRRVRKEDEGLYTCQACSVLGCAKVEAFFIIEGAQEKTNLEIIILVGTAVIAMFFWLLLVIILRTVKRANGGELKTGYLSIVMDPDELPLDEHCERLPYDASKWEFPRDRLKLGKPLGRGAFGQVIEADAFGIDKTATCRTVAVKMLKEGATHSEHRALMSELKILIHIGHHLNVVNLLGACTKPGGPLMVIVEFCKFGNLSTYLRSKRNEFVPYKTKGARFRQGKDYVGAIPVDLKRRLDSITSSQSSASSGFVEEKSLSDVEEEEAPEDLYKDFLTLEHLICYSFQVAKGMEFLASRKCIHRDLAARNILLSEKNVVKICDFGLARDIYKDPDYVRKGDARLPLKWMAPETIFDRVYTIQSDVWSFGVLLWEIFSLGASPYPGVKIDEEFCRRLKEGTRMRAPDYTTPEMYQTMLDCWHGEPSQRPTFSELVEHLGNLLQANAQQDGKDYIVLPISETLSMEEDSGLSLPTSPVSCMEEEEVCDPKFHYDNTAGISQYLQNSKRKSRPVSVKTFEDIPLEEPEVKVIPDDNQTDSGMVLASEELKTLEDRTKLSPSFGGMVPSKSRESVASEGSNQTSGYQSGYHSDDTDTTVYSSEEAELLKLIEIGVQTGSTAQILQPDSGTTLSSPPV

| SMILES | pIC50 [1, 3] | further results |
| --- | --- | --- |
| COc1cc2c(Nc3ccc(Cl)c(Cl)c3F)ncnc2cc1OC[C@@H]1CN2CCCC[C@@H]2C(=O)N1 [compound 57802634] | 7.30 | – |
| COc1cc2nccc(Oc3ccc4c(C(=O)Nc5ccc(Cl)cc5)cccc4c3)c2cc1OC [compound 24757938] | – | pIC50 [1]: 10.52 |
| Nc1c(C(=O)c2cc3ccccc3[nH]2)cnn1-c1ccc2[nH]ccc2c1 [compound 134146580, [5-Amino-1-(1H-indol-5-yl)pyrazol-4-yl]-(1H-indol-2-yl)methanone] | – | VEGFR2, rIC50 [2]: 0.5 |
| COc1cc2c(Nc3ccc(Cl)c(Cl)c3F)ncnc2cc1OC[C@@H]1CN2CCCC[C@H]2C(=O)N1 [compound 57802612] | 7.30 | – |
